{"source": "patent US20090239891A1", "about": "(priority 2006, published 2009)", "experiment": "Plasma concentration of buprenorphine after intravenous administration (LC/MS)", "details": "mice", "data": [{"substance": "buprenorphine hydrochloride", "values": [{"measurement": "Plasma Concentration of buprenorphine", "setting": "0.08 hours after i.v. 2.4 mg/kg", "value": "1.138e+06", "unit": "µg/mL"}, {"measurement": "Plasma Concentration of buprenorphine", "setting": "0.25 hours after i.v. 2.4 mg/kg", "value": 407000, "unit": "µg/mL"}, {"measurement": "Plasma Concentration of buprenorphine", "setting": "0.5 hours after i.v. 2.4 mg/kg", "value": 207000, "unit": "µg/mL"}, {"measurement": "Plasma Concentration of buprenorphine", "setting": "1 hour after i.v. 2.4 mg/kg", "value": 91200, "unit": "µg/mL"}, {"measurement": "Plasma Concentration of buprenorphine", "setting": "2 hours after i.v. 2.4 mg/kg", "value": 31500, "unit": "µg/mL"}, {"measurement": "Plasma Concentration of buprenorphine", "setting": "3 hours after i.v. 2.4 mg/kg", "value": 22700, "unit": "µg/mL"}, {"measurement": "Plasma Concentration of buprenorphine", "setting": "5 hours after i.v. 2.4 mg/kg", "value": 13000, "unit": "µg/mL"}, {"measurement": "Plasma Concentration of buprenorphine", "setting": "7 hours after i.v. 2.4 mg/kg", "value": 7100, "unit": "µg/mL"}, {"measurement": "Plasma Concentration of buprenorphine", "setting": "9 hours after i.v. 2.4 mg/kg", "value": 5200, "unit": "µg/mL"}, {"measurement": "Plasma Concentration of buprenorphine", "setting": "12 hours after i.v. 2.4 mg/kg", "value": 1900, "unit": "µg/mL"}, {"measurement": "Plasma Concentration of buprenorphine", "setting": "18 hours after i.v. 2.4 mg/kg", "value": 580, "unit": "µg/mL"}, {"measurement": "Plasma Concentration of buprenorphine", "setting": "24 hours after i.v. 2.4 mg/kg", "value": 210, "unit": "µg/mL"}, {"measurement": "plasma concentration as % of the initial concentration", "setting": "within 5 or 6 hours after i.v. 2.4 mg/kg", "value": "approximately 1%"}]}]}
